Laboratory results from ChEMBL document CHEMBL2203099, “Identification of a crucial amino acid in the helix position 6.51 of human tachykinin neurokinin 1 and 3 receptors contributing to the insurmountable mode of antagonism by dual NK₁/NK₃ antagonists” (J Med Chem, 2012).

Amino acid sequences for entries named in this document (tags omitted).
UniProt P29371, whole entry Y315F: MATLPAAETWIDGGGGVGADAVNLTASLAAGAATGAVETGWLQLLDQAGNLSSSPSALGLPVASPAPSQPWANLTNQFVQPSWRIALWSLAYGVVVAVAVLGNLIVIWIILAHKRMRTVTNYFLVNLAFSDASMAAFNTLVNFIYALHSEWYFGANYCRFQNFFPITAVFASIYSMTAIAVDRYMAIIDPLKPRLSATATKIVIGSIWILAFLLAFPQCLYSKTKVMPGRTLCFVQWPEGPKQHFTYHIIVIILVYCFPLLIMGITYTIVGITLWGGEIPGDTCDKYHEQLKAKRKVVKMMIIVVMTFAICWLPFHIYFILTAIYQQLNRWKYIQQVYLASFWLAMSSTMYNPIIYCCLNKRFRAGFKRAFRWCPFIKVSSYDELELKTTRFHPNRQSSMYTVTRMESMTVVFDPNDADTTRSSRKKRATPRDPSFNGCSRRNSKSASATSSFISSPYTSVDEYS
UniProt P29371, whole entry Y247W: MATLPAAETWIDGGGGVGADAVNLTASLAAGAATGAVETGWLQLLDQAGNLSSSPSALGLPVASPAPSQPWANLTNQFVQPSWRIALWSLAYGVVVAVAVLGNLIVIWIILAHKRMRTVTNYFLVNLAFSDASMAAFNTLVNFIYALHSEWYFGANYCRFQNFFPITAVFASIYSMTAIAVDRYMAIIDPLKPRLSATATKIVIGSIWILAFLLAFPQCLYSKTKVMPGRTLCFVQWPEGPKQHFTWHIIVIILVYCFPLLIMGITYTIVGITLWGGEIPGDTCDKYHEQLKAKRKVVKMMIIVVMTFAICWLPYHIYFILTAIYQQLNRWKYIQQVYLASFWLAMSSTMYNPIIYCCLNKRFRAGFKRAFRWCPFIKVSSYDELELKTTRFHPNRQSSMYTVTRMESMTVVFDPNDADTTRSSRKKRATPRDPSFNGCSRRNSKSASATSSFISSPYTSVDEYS
UniProt P29371, whole entry Y247F: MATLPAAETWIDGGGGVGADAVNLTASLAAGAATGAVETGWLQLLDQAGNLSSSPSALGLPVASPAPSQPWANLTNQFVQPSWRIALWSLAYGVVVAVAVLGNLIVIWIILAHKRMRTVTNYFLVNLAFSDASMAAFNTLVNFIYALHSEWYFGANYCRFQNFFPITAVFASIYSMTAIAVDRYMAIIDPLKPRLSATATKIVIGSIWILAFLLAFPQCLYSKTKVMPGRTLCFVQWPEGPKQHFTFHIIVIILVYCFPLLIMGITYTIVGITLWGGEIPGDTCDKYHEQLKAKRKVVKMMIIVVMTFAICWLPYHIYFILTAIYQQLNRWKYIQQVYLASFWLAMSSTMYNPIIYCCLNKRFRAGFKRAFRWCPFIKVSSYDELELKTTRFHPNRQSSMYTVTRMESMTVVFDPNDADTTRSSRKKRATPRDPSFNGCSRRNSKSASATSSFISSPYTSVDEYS
UniProt P29371, whole entry H316W: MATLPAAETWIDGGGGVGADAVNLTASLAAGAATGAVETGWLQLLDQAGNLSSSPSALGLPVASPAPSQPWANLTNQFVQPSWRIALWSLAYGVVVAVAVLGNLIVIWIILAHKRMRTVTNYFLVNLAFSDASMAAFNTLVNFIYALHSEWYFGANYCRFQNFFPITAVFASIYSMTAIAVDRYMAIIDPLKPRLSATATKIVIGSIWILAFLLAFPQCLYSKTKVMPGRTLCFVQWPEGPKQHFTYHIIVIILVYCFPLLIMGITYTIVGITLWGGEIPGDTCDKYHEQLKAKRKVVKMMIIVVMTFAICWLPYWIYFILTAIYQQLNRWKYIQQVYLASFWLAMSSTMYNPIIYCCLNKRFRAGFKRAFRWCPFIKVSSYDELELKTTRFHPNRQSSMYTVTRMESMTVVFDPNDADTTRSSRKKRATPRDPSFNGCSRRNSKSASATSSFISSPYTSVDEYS
UniProt P29371, whole entry H316F: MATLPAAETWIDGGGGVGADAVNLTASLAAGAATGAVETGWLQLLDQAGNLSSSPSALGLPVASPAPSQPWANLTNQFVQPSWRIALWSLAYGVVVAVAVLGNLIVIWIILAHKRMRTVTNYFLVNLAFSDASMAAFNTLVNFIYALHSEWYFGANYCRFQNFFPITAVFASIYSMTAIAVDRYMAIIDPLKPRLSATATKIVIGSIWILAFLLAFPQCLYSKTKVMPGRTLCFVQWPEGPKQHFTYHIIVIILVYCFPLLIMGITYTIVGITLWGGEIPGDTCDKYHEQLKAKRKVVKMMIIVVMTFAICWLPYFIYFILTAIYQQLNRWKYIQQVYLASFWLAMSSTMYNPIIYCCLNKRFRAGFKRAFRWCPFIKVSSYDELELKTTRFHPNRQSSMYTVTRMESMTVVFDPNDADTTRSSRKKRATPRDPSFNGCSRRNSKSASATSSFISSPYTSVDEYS

Key:
Assay type in all cases: cell-based
[1] = molecular target: T1, Neuromedin-K receptor (Homo sapiens, UniProt P29371, Y315F); assay: Displacement of radioligand [3H]osanetant at human NK3 Y315F6.51 mutant expressed in HEK293 cells
[2] = molecular target: Neuromedin-K receptor (Homo sapiens, UniProt P29371, Y247W); assay: Displacement of radioligand [3H]osanetant at human NK3 Y247W mutant expressed in HEK293 cells
[3] = molecular target: Neuromedin-K receptor (Homo sapiens, UniProt P29371, Y247F); assay: Competitive inhibition at human NK3 Y247F5.38 mutant expressed in HEK293 cells assessed as decrease in [MePhe7]NKB-induced [3H]IP accumulation after 20 mins; conditions: read-out: pA2 (converted)
[4] = molecular target: T2, Neuromedin-K receptor (Homo sapiens, UniProt P29371, H316W); assay: Competitive inhibition at human NK3 H316W6.52 mutant expressed in HEK293 cells assessed as decrease in [MePhe7]NKB-induced [3H]IP accumulation after 20 mins; conditions: read-out: pA2 (converted)
[5] = molecular target: Neuromedin-K receptor (Homo sapiens, UniProt P29371, H316F); assay: Displacement of radioligand [3H]osanetant at human NK3 H316F mutant expressed in HEK293 cells
[6] = molecular target: T1, Neuromedin-K receptor; assay: Competitive inhibition at human NK3 Y315F6.51 mutant expressed in HEK293 cells assessed as decrease in [MePhe7]NKB-induced [3H]IP accumulation after 20 mins; conditions: read-out: pA2 (converted)
Summary of the method: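 HEK293 cells transiently expressing human NK3 WT or mutant, labeled with myo-[³H]inositol in LiCl buffer. Antagonist preincubated 20 min at 37 °C, then [MePhe⁷]NKB (0.01 nM–1 μM) added for 45 min at 37 °C. [³H]IP read by SPA beads. Schild analysis of EC50 shift and Emax depression across increasing antagonist concentrations gives pA2, slope and mode of antagonism.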

[7] = molecular target: T2, Neuromedin-K receptor; assay: Displacement of radioligand [3H]osanetant at human NK3 H316W mutant expressed in HEK293 cells

CC[C@H](NC(=O)c1c(O)c(-c2ccccc2)nc2ccccc12)c1ccccc1 [TALNETANT]
Ki [1]: 1.7 nM | Ki [2]: 37.2 nM | Kb [3]: 2.88 nM | Kb [4]: 229 nM | Ki [5]: 10.6 nM | Kb [6]: 2.34 nM | Ki [7]: 122 nM
